Assay results from PMC11117691, “Flipping the GPCR Switch: Structure-Based Development of Selective Cannabinoid Receptor 2 Inverse Agonists” (ACS Central Science, 2024).

Protein sequences, listed by entry. Tags and fused reporters are not part of them.
UniProt P21554, whole entry: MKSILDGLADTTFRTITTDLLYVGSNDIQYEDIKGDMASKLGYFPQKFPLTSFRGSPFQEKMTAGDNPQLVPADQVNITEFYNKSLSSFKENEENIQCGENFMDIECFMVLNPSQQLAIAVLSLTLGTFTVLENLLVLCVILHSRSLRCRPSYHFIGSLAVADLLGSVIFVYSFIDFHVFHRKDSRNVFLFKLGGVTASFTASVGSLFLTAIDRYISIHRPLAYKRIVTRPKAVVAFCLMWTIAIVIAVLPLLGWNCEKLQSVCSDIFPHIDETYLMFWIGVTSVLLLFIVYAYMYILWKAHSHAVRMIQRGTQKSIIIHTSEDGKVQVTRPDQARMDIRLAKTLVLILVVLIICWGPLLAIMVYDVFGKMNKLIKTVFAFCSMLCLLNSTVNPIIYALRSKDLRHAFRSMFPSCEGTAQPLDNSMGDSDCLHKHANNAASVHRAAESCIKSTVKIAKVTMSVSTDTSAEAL
UniProt P34972, whole entry: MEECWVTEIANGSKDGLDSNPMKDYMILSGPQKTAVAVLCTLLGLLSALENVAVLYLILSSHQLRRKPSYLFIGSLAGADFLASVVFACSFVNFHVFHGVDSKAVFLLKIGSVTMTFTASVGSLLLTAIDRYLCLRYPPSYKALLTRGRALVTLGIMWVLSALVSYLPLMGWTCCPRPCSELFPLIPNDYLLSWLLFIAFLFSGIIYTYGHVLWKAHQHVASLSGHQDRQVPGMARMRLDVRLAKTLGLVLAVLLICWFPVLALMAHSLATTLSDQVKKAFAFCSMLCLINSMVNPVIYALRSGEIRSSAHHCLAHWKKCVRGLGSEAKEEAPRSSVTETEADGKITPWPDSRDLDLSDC

Assays:
[1] = target: hCB1R (Homo sapiens, UniProt P21554); assay: TR-FRET saturation binding assay at CB1R; conditions: selectivity for CB2R over CB1R, 37 °C
Protocol: The binding selectivity of fluorescent probes was tested against the closely related CB1R in a saturation binding assay at 37 °C using membrane preparations derived from HEK293 cells expressing hCB1R (Table 1). […] Collectively, the excellent affinity and selectivity of a range of physicochemically distinct substituents and fluorophores highlight the versatility of novel platform ligand (R)-1.

[2] = target: T1, hCB2R (Homo sapiens, UniProt P34972); assay: TR-FRET kinetic binding assay at CB2R; conditions: 37 °C, hCB2R-HEK293 membranes, mean N = 3
[3] = target: T1, hCB2R; assay: TR-FRET saturation binding assay at CB2R; conditions: read-out: Kd CB2R, 37 °C, hCB2R-HEK293 membranes, mean N = 3
[4] = target: T1, hCB2R; assay: Radioligand binding assay with [3H]-CP55,940; conditions: read-out: Ki CB2R; [3H]-CP55,940 competition, CHO-hCB2R membranes, 2 h at 30 °C
[5] = target: T1, hCB2R; assay: cAMP HTRF assay in hCB2R-CHO cells; conditions: for pEC50 (cAMP): hCB2R-CHO cells, forskolin stimulated, mean N = 3
[6] = system: CB2R-mediated phosphorylation of endogenous ERK1/2; assay: AlphaScreen SureFire phospho-ERK assay in CB2R inducible HCC1954 cells; conditions: 1 μM, 30 min, versus vehicle
[7] = normalized to agonist CP-55,940 response (100%) and basal level (0%)

COc1cc(C(C)(C)[C@H](CCCCCN=[N+]=[N-])c2ccccc2)cc(OC)c1[C@@H]1C=C(CNC(=O)CCCCCNC(=O)c2ccc3c(c2)C2(OC3=O)c3ccc(O)cc3Oc3cc(O)ccc32)[C@@H]2C[C@H]1C2(C)C
Kd ratio (CB1R/CB2R) [1]: 42–142 and 42

COc1cc(C(C)(C)[C@H](CCCCCN=[N+]=[N-])c2ccccc2)cc(OC)c1[C@@H]1C=C(CNC(=O)CCCCCNC(=O)c2ccc3c(c2)C(=O)OC32c3ccc(N(C)C)cc3Oc3cc(N(C)C)ccc32)[C@@H]2C[C@H]1C2(C)C
koff [2]: 1.08 10^–2 min^–1 | kon [2]: 3.60 10^6 M^–1 min^–1 | τ (receptor residence time) [2]: 92.6 min | Kd ([2]; read-out: kinetic Kd): 3 nM

CCN(CC)c1ccc2cc(/C=C/c3ccc(S(=O)(=O)[O-])c[n+]3CCCCCC(=O)NCC3=C[C@@H](c4c(OC)cc(C(C)(C)[C@H](CCCCCN=[N+]=[N-])c5ccccc5)cc4OC)[C@H]4C[C@@H]3C4(C)C)c(=O)oc2c1
Kd [3]: 18.9 nM | Ki [4]: 8.26 nM | pEC50 (cAMP) [5]: 7.15 | Emax (cAMP) [5, 7]: –31% | ERK1/2 phosphorylation level ([6]; CB2R expression induced with DOX (1 μg/mL)): no effect | ERK1/2 phosphorylation level ([6]; absence of CB2R expression inducer (DOX)): remained the same

COc1cc(C(C)(C)[C@@H](CCCCCN=[N+]=[N-])c2ccccc2)cc(OC)c1[C@@H]1C=C(CNC(=O)CCCCCCNc2ccc([N+](=O)[O-])c3nonc23)[C@@H]2C[C@H]1C2(C)C
pEC50 (cAMP) [5]: 4.98 | Emax (cAMP) ([5]; normalized to inverse agonist AM10257 response (0%) and basal level (100%)): +44%

C#CCCC(=O)NCC1=C[C@@H](c2c(OC)cc(C(C)(C)CCCCCCN=[N+]=[N-])cc2OC)[C@H]2C[C@@H]1C2(C)C
pEC50 (cAMP) [5]: 8.47 | Emax (cAMP) [5, 7]: +112%

CCN(CC)c1ccc2cc(/C=C/c3ccc(S(=O)(=O)[O-])c[n+]3CCCCCC(=O)NCC3=C[C@@H](c4c(OC)cc(C(C)(C)[C@@H](CCCCCN=[N+]=[N-])c5ccccc5)cc4OC)[C@H]4C[C@@H]3C4(C)C)c(=O)oc2c1
pEC50 (cAMP) [5]: 6.47 | Emax (cAMP) [5, 7]: –37%

COc1cc(C(C)(C)[C@H](CCCCCN=[N+]=[N-])c2ccccc2)cc(OC)c1[C@@H]1C=C(CNC(=O)CCCCCCNc2ccc([N+](=O)[O-])c3nonc23)[C@@H]2C[C@H]1C2(C)C
pEC50 (cAMP) [5]: 5.91 | Emax (cAMP) [5, 7]: –40%

Several values for one entry are separate records, joined by “and”; a condition that tells them apart may be missing. Equal entries are not always repeated.
